Experimental data: patent publication EP4840863A1, “FLUORINE-CONTAINING PARTHENOLIDE DERIVATIVE, PREPARATION METHOD THEREFOR AND USE THEREOF” (dated 2026)

Columns and labels:
[1] = test system: H520; assay: Anticancer activity test (CCK-8), H520 cells; settings: 72 h, Table 1-1
Description: Cells in logarithmic growth phase were digested, centrifuged, and counted; the cell suspension was adjusted to a concentration of 1500-3500 cells/well, and 95 µL was seeded into each well of a 96-well plate.
After continued overnight culture, drugs at different concentrations were added to the plate, with six replicate wells for each concentration. 10 µL of the drug was added to each well, followed by incubation for 72 h. Then, 10 µL of CCK-8 solution was added to each well (care should be taken to avoid generating bubbles in the wells, as they can affect the OD reading). After incubation in the incubator for 1-4 h, the OD value at 450 nm was measured using a microplate reader. The experiment to assess the effect of each drug on each cell line at different time points was repeated three times.
Data were processed using EXCEL software to calculate the inhibition rate at different concentrations, and SPSS was used to fit the IC50 value. EXCEL was used to calculate the mean and standard deviation of the three IC50 values. Inhibition rate % = {1 - (OD value of drug well - OD value of blank well) / (OD value of control well - OD value of blank well) } * 100%. Table 1-1 Activity of Compounds in Inhibiting Cancer Cells

[2] = Distribution of Compound 4 and released Compound 1 in tissues (brain, pancreas, rectum, liver, lung; LC/MS)
Description: (1) Forty-eight healthy Bar b/c mice, each weighing approximately 20 g, were taken and divided into 3 groups. Blank control group (6 mice), oral gavage administration group (Compound 4 dose: 50 mg/kg, 21 mice), and tail vein injection administration group (Compound 4 dose: 10 mg/kg, 21 mice) (2) For the oral gavage group, blood samples were collected at 5 min, 15 min, 30 min, 1 h, 3 h, 8 h, and 24 h after administration. For the intravenous injection group, blood samples were collected at 2 min, 5 min, 15 min, 30 min, 1 h, 3 h, 8 h, and 24 h after administration. Blood was collected from mice via eyeball removal and placed in anticoagulant tubes containing sodium heparin. The samples were immediately centrifuged at 5000 rpm at low temperature (4°C) for 10 min to obtain plasma samples. The samples were stored in a -80°C freezer for analysis. Three mice were used per time point. (3) The mouse was fixed on a foam board. The skin on the chest was lifted with forceps, and the thoracic skin and ribs were cut open with scissors to expose the heart and liver. The auricle was then cut open. A syringe needle was inserted into the left ventricle of the mouse, and normal saline was perfused for approximately 1 min (10-20 mL) until the mouse's limbs, liver, and tongue turned pale. Brain collection: The skin on the head was cut open to expose the white skull. The cartilage was cut, the skull cap was carefully pried open to expose the white brain, and the entire brain was dissected out. Tissues such as the pancreas, liver, lung, and rectum were also collected. The samples were stored in a -80°C freezer for analysis. (4) The contents of Compound 4 and Compound 1 in peripheral blood and tissues were detected by LC/MS. MS/MS information

[3] = Brain, po (50 mg/kg) Compound 4
[4] = Liver, po (50 mg/kg) Compound 4
[5] = Pancreas, iv (10mg/kg) Compound 4
[6] = Pancreas, po (50 mg/kg) Compound 4
[7] = Rectum, iv (10mg/kg) Compound 4
[8] = Rectum, po (50 mg/kg) Compound 4
[9] = iv (10 mg/kg) Compound 4, 2 min, Mean
[10] = iv (10 mg/kg) Compound 4, 2 min, individual mice, 10 mg/kg
[11] = iv (10 mg/kg) Compound 4, 5min, Mean
[12] = iv (10 mg/kg) Compound 4, 5min, individual mice, 10 mg/kg
[13] = iv (10 mg/kg) Compound 4, 15min, Mean
[14] = iv (10 mg/kg) Compound 4, 15min, individual mice, 10 mg/kg
[15] = iv (10 mg/kg) Compound 4, 30min, Mean
[16] = iv (10 mg/kg) Compound 4, 30min, individual mice, 10 mg/kg
[17] = iv (10 mg/kg) Compound 4, 1h, Mean
[18] = iv (10 mg/kg) Compound 4, 1h, individual mice
[19] = iv (10 mg/kg) Compound 4, 3h, Mean
[20] = po (50 mg/kg) Compound 4, 5min, Mean
[21] = po (50 mg/kg) Compound 4, 5min, individual mice, 50 mg/kg
[22] = po (50 mg/kg) Compound 4, 15min, Mean
[23] = po (50 mg/kg) Compound 4, 15min, individual mice, 50 mg/kg
[24] = po (50 mg/kg) Compound 4, 30min, Mean
[25] = po (50 mg/kg) Compound 4, 30min, individual mice, 50 mg/kg
[26] = po (50 mg/kg) Compound 4, 1h, Mean
[27] = po (50 mg/kg) Compound 4, 1h, individual mice, 50 mg/kg
[28] = po (50 mg/kg) Compound 4, 3h, Mean
[29] = po (50 mg/kg) Compound 4, 8h, Mean
[30] = po (50 mg/kg) Compound 4, 8h, individual mice

## C=C1C(=O)OC2C1CCC(CC(F)(F)F)=CCCC1(C)OC21 (stereo not drawn)
[1]
  IC50: 1.79 µM
[2]; Brain, iv (10mg/kg) Compound 4
  AUC0-t: 133 ng·h/g
  Fold (AUCtissue/AUCplasma ): 2.49
[2]; [3]
  AUC0-t: 403 ng·h/g
  Fold (AUCtissue/AUCplasma ): 1.67
[2]; Liver, iv (10mg/kg) Compound 4
  AUC0-t: 70 ng·h/g
  Fold (AUCtissue/AUCplasma ): 1.32
[2]; [4]
  AUC0-t: 541 ng·h/g
  Fold (AUCtissue/AUCplasma ): 2.24
[2]; Lung, iv (10mg/kg) Compound 4
  AUC0-t: 13 ng·h/g
  Fold (AUCtissue/AUCplasma ): 0.24
[2]; Lung, po (50 mg/kg) Compound 4
  AUC0-t: 80 ng·h/g
  Fold (AUCtissue/AUCplasma ): 0.33
[2]; [5]
  AUC0-t: 17 ng·h/g
  Fold (AUCtissue/AUCplasma ): 0.32
[2]; [6]
  AUC0-t: 136 ng·h/g
  Fold (AUCtissue/AUCplasma ): 0.56
[2]; [7]
  AUC0-t: 47 ng·h/g
  Fold (AUCtissue/AUCplasma ): 0.88
[2]; [8]
  AUC0-t: 675 ng·h/g
  Fold (AUCtissue/AUCplasma ): 2.80
[2]; [9]
  Concentration of Compound 1 in Liver: 139.0 ng/g
  Concentration of Compound 1 in the Lung: 38.9 ng/g
  Concentrations of Compound 1 in Brain Tissue: 350 ng/g
  Concentrations of Compound 1 in Pancreatic Tissue: 64.3 ng/g
  Concentrations of Compound 1 in Rectum: 85.5 ng/g
[2]; [10]
  Concentration of Compound 1 in Liver: 223 ng/g and 113 ng/g and 81.1 ng/g
  Concentrations of Compound 1 in Brain Tissue: 356 ng/g and 271 ng/g and 422 ng/g
  Concentrations of Compound 1 in Pancreatic Tissue: 78.6 ng/g and 68.3 ng/g and 46.1 ng/g
  Concentrations of Compound 1 in Rectum: 85.6 ng/g and 113 ng/g and 57.9 ng/g
[2]; [11]
  Concentration of Compound 1 in Liver: 117.5 ng/g
  Concentration of Compound 1 in the Lung: 36.2 ng/g
  Concentrations of Compound 1 in Brain Tissue: 225 ng/g
  Concentrations of Compound 1 in Pancreatic Tissue: 43.3 ng/g
  Concentrations of Compound 1 in Rectum: 101 ng/g
[2]; [12]
  Concentration of Compound 1 in Liver: 101 ng/g and 72.6 ng/g and 179 ng/g
  Concentrations of Compound 1 in Rectum: 143 ng/g and 79.1 ng/g and 80.8 ng/g
[2]; [13]
  Concentration of Compound 1 in Liver: 57.6 ng/g
  Concentration of Compound 1 in the Lung: 15.24 ng/g
  Concentrations of Compound 1 in Brain Tissue: 170 ng/g
  Concentrations of Compound 1 in Pancreatic Tissue: 16.9 ng/g
  Concentrations of Compound 1 in Rectum: 48.0 ng/g
[2]; [14]
  Concentration of Compound 1 in Liver: 38 ng/g and 72.6 ng/g and 62.1 ng/g
  Concentrations of Compound 1 in Pancreatic Tissue: 22.4 ng/g
  Concentrations of Compound 1 in Rectum: 35.0 ng/g and 54.0 ng/g and 55.1 ng/g
[2]; [15]
  Concentration of Compound 1 in Liver: 32.3 ng/g
  Concentration of Compound 1 in the Lung: 4.73 ng/g
  Concentrations of Compound 1 in Brain Tissue: 22.5 ng/g
  Concentrations of Compound 1 in Pancreatic Tissue: 11.67 ng/g
  Concentrations of Compound 1 in Rectum: 50.27 ng/g
[2]; [16]
  Concentration of Compound 1 in Liver: 24.9 ng/g and 42.5 ng/g and 29.4 ng/g
  Concentrations of Compound 1 in Brain Tissue: 25.8 ng/g and 16.1* ng/g and 25.5 ng/g
[2]; [17]
  Concentration of Compound 1 in Liver: 17.4 ng/g
  Concentration of Compound 1 in the Lung: 5.39 ng/g
  Concentrations of Compound 1 in Brain Tissue: 32.9 ng/g
  Concentrations of Compound 1 in Pancreatic Tissue: 0.942 ng/g
  Concentrations of Compound 1 in Rectum: 8.19 ng/g
[2]; [18]
  Concentration of Compound 1 in the Lung: 5.39* ng/g
  Concentrations of Compound 1 in Pancreatic Tissue: 0.942* ng/g
[2]; iv (10 mg/kg) Compound 4, 1h, individual mice, 10 mg/kg
  Concentration of Compound 1 in Liver: 14.5* ng/g (2×) and 23.1 ng/g
[2]; [19]
  Concentration of Compound 1 in Liver: 3.21 ng/g
  Concentrations of Compound 1 in Brain Tissue: 0.86 ng/g
[2]; iv (10 mg/kg) Compound 4, 3h, individual mice
  Concentrations of Compound 1 in Brain Tissue: 0.863* ng/g
[2]; [20]
  Concentration of Compound 1 in Liver: 1126.0 ng/g
  Concentration of Compound 1 in the Lung: 72.3 ng/g
  Concentrations of Compound 1 in Brain Tissue: 368 ng/g
  Concentrations of Compound 1 in Pancreatic Tissue: 133 ng/g
  Concentrations of Compound 1 in Rectum: 96 ng/g
[2]; [21]
  Concentration of Compound 1 in Liver: 1090 ng/g and 898 ng/g and 1390 ng/g
  Concentration of Compound 1 in the Lung: 55.2 ng/g and 78.7 ng/g and 83 ng/g
  Concentrations of Compound 1 in Brain Tissue: 245 ng/g and 414 ng/g and 446 ng/g
  Concentrations of Compound 1 in Pancreatic Tissue: 158 ng/g and 61.1 ng/g and 180 ng/g
  Concentrations of Compound 1 in Rectum: 80.3 ng/g and 101 ng/g and 107 ng/g
[2]; [22]
  Concentration of Compound 1 in Liver: 388.0 ng/g
  Concentration of Compound 1 in the Lung: 32.9 ng/g
  Concentrations of Compound 1 in Brain Tissue: 416 ng/g
  Concentrations of Compound 1 in Pancreatic Tissue: 89.8 ng/g
  Concentrations of Compound 1 in Rectum: 78.4 ng/g
[2]; [23]
  Concentration of Compound 1 in Liver: 460.0 ng/g and 417.0 ng/g and 287 ng/g
  Concentrations of Compound 1 in Brain Tissue: 507 ng/g and 441 ng/g and 300 ng/g
  Concentrations of Compound 1 in Pancreatic Tissue: 73.6 ng/g and 97.4 ng/g and 98.4 ng/g
  Concentrations of Compound 1 in Rectum: 132 ng/g and 49.8 ng/g and 53.3 ng/g
[2]; [24]
  Concentration of Compound 1 in Liver: 219.7 ng/g
  Concentration of Compound 1 in the Lung: 28.0 ng/g
  Concentrations of Compound 1 in Brain Tissue: 275 ng/g
  Concentrations of Compound 1 in Pancreatic Tissue: 130 ng/g
  Concentrations of Compound 1 in Rectum: 177 ng/g
[2]; [25]
  Concentration of Compound 1 in Liver: 147 ng/g and 206 ng/g and 306 ng/g
  Concentrations of Compound 1 in Brain Tissue: 268 ng/g and 209 ng/g and 348 ng/g
[2]; [26]
  Concentration of Compound 1 in Liver: 55.9 ng/g
  Concentration of Compound 1 in the Lung: 32 ng/g
  Concentrations of Compound 1 in Brain Tissue: 77.5 ng/g
  Concentrations of Compound 1 in Pancreatic Tissue: 27.5 ng/g
  Concentrations of Compound 1 in Rectum: 27.3 ng/g
[2]; [27]
  Concentration of Compound 1 in Liver: 59.8 ng/g and 46 ng/g and 61.9 ng/g
  Concentration of Compound 1 in the Lung: 38.6 ng/g and 31.5 ng/g and 25.6 ng/g
  Concentrations of Compound 1 in Brain Tissue: 107 ng/g and 65.4 ng/g and 60.0 ng/g
  Concentrations of Compound 1 in Pancreatic Tissue: 28.0 ng/g and 29.0 ng/g and 25.6 ng/g
  Concentrations of Compound 1 in Rectum: 36.6 ng/g and 31.1 ng/g and 14.3* ng/g
[2]; [28]
  Concentration of Compound 1 in Liver: 35.3 ng/g
  Concentration of Compound 1 in the Lung: 14 ng/g
  Concentrations of Compound 1 in Brain Tissue: 11.0 ng/g
  Concentrations of Compound 1 in Pancreatic Tissue: 17.9 ng/g
  Concentrations of Compound 1 in Rectum: 144 ng/g
[2]; po (50 mg/kg) Compound 4, 3h, individual mice, 50 mg/kg
  Concentrations of Compound 1 in Pancreatic Tissue: 23.4 ng/g and 12.4* ng/g
[2]; [29]
  Concentration of Compound 1 in Liver: 17.3 ng/g
  Concentrations of Compound 1 in Brain Tissue: 12.9 ng/g
  Concentrations of Compound 1 in Rectum: 16.8 ng/g
[2]; [30]
  Concentration of Compound 1 in Liver: 17.3* ng/g
  Concentrations of Compound 1 in Brain Tissue: 12.9* ng/g
  Concentrations of Compound 1 in Rectum: 16.8* ng/g

Several values for one entry are separate records, joined by “and”; a condition that tells them apart may be missing. Equal entries are not always repeated. Marks after values point to notes of the source that are not given here.
